Laboratory results as given in patent US20230192831A1.

By UniProt entry, the sequences of proteins in these tests, tags left out. Chains listed by the source or under a name are the forms on record and can include a tag or linker.
UniProt O60565, other isoform, or with tags, fused parts or gaps limits assumed, form in doubt: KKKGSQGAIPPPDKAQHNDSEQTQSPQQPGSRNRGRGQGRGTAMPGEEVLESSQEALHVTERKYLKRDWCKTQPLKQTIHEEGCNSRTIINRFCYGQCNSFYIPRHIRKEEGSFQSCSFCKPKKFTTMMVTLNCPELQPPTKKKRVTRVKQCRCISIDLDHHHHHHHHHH

Key:
[1] = target: recombinant human GREM1 (hGREM1-His; C-terminal 10His tagged, R&D, #5190-GR) (human) (UniProt O60565); assay: cell-based or functional assay
[2] = target: recombinant human GREM1 (hGREM1-His; C-terminal 10His tagged, R&D, #5190-GR) (human) (UniProt O60565); assay: BLI Octet, captured mAb, 100 nM GREM1
[3] = target: recombinant human GREM1 (hGREM1-His; C-terminal 10His tagged, R&D, #5190-GR) (human) (UniProt O60565); assay: BLI Octet, captured mAb, 100 nM GREM1 + 5 uM heparin
[4] = target: recombinant human GREM1 (hGREM1-His; C-terminal 10His tagged, R&D, #5190-GR) (human) (UniProt O60565); assay: BLI Octet, captured mAb, 100 nM GREM1 without vs with 5 uM heparin

IC50 [M], W-20-17/BRE-luc luciferase bioassay, 100 pM hBMP4 and 10 nM hGREM1-His [1]: 4.5e-10 M
hGREM1-His Inhibition IC50, M; W-20-17 cell differentiation assay (alkaline phosphatase) [1]: 18 nM
Binding Signal with 30 sec Association (nm) [2]: 0.2 nm
Binding Signal with 300 sec Association (nm) [2]: 0.68 nm
Binding Signal with 30 sec Association (nm) [3]: 0.01 nm
Binding Signal with 300 sec Association (nm) [3]: 0.26 nm
Reduction in Signal from Heparin at 30 sec [4]: 0.19 nm
Reduction in Signal from Heparin at 300 sec [4]: 0.42 nm
B1: H4H2897N (antibody, human IgG4, V domains shown)
VH: QVQLVESGGGVVQPGRSLRLSCAASGFTFTNYGMHWVRQAPGKGLEWVAAISYDGTNKYYADSVKGRFTISRDDSKNTLCLQMNSLRAEDTAVYYCAKEGTGEGFSFDYWGQGTLVTVSS
VL: DIVMTQSPLSLPVTPGEPASISCRSSQSLLHFNGYNYLDWYLQKPGQSPQLLIYLGSNRASGVPDRFSGSGSGTDFTLKVSRVEAEDVGVYYCMQALQTPFTFGPGTKVDIK
